Measurements from patent US11311475B2, “Skin care compositions containing peptide compound and aphanothece sacrum exopolysaccharide extract” (The Procter & Gamble Company, priority 2019, dated 2022).

Assay: Franz diffusion cell skin penetration assay
Format: in vitro ADME, human
Conditions: for PKEK Skin Penetration: Surface Residual / PKEK Skin Penetration: Dermis / PKEK Skin Penetration: Epidermis / PKEK Skin Penetration: Total Penetration / PKEK Skin Penetration: Receptor: PKEK 40 ppm; for PKEK Skin Penetration: Surface Residual: 3H-spiked, 24 h after topical dose on human skin; for PKEK Skin Penetration: Total Penetration: epidermis+dermis+receptor; for PKEK Skin Penetration: Receptor: receptor solution (transdermal)
Description: The method is described. The skin penetration of pal-KT (5 ppm) and PKEK [SEQ ID NO: 2] (40 ppm) is assessed using the Franz diffusion cell assay (4, T. J. Franz, J. Invest. Dermatol. 64: 190-195, 1975; T. J. Franz, et al., Skin Pharmacol. Physiol. 22: 276-286, 2009). The peptides are formulated in a skin care silicone-in-water (SWF) formulation with or without 10 wt % SACRAN. The formulations are spiked with ^14C-pal-KT or ^3H-PKEK. Twenty-four hours after topically dosed on human skin, residual product is removed from the skin surface, the epidermal and dermal layers were separated, and receptor solutions (transdermal) are collected.

[1] = SWF + 10 wt % SACRAN versus SWF, 24 h, human skin
[2] = SWF formulation without SACRAN (control), 24 h

With Proline-Lysine-Glycine-Lysine [PKEK] the “amount recovered from the surface of the skin with SACRAN versus without (in words)” value [1] was “decrease”, the “effect of addition of SACRAN on skin penetration (in words)” value [1] was “numerical increase” and the “PKEK Skin Penetration: Surface Residual” value (SWF + 10 wt % SACRAN) was 1762 ± 161 ng/cm^2. For the same substance, the “PKEK Skin Penetration: Dermis” value (SWF + 10 wt % SACRAN, 24 h) was 49 ± 11 ng/cm^2, the “PKEK Skin Penetration: Epidermis” value (SWF + 10 wt % SACRAN, 24 h) was 382 ± 67 ng/cm^2 and the “PKEK Skin Penetration: Total Penetration” value (SWF + 10 wt % SACRAN, 24 h) was 770 ± 161 ng/cm^2. For the same substance, the “PKEK Skin Penetration: Receptor” value (SWF + 10 wt % SACRAN, 24 h) was 339 ± 134 ng/cm^2, the “increase in skin penetration by addition of SACRAN to SWF” value (SWF + SACRAN versus SWF, single topical application) was 60% and the “PKEK Skin Penetration: Surface Residual” value (SWF formulation without SACRAN (control)) was 2048 ± 59 ng/cm^2. The “PKEK Skin Penetration: Dermis” value [2] was 54 ± 10 ng/cm^2, the “PKEK Skin Penetration: Epidermis” value [2] was 258 ± 31 ng/cm^2 and the “PKEK Skin Penetration: Total Penetration” value [2] was 483 ± 59 ng/cm^2. For the same substance, the “PKEK Skin Penetration: Receptor” value [2] was 169 ± 54 ng/cm^2.
